Test results as given in patent US11559579B2, “Methods for protecting and treating traumatic brain injury, concussion and brain inflammation with intranasal insulin” (HealthPartners Research & Education, priority 2014, dated 2023).

Assays:
[1] = tail vein blood prior to injury, 4 hours after injury/before treatment and 3 hours after treatment; n=3 per group; insulin to upper third of nasal cavity; FIG. 5
[2] = weighed on days 1, 7, 14 and 21 post-injury; intranasal, once a day

insulin
blood glucose, insulin rats vs saline rats [1]: no significant difference in blood glucose | weight, insulin rats vs saline rats [2]: no significant difference in weight
